Experiments:
Assay in all cases: Phosphoprotein kinetic profiles in CD34+, CD117+ cells of AML bone marrow samples
Type in all cases: cell-based, human
Conditions in all cases: AML1 sample (Example 6)
[1] = test system: pS6
Protocol: (§1) To assess the signal transduction response after growth factor simulation, 100 to 200 μL of processed samples including about 2×10^6 WBC/100 μL were added to tubes and incubated at 37° C. for 30 minutes. For inhibition experiments, cells were incubated with 100 μM U0126, 1 μg/mL rapamycin, or both for at least 20 minutes prior to cytokine addition and in all cases for 30 min prior to formaldehyde addition. After this pre-incubation period, tubes were incubated at 0, 1, 2, 4, 6, 8, 10, 15, 20, 25, 30, and 60 minutes with one of the following cytokines to stimulate protein phosphorylation: 100 ng/mL SCF, 25 ng/mL FL, 25 ng/mL GM-CSF, or 25 ng/mL IL-3. After stimulation the cells were immediately fixed by the addition of formaldehyde to a final concentration of 4% v/v and incubated for 10 minutes at room temperature. Following fixation, red blood cells were lysed by the addition of TRITON-X/PBS solution (0.1% v/v final concentration Triton X-100) supplemented with a 1 x phosphatase inhibitor cocktail (PIC; final concentrations: 0.2 mM sodium orthovanadate, 2 mM sodium pyrophosphate decahydrate, 2 mM [3-glycerophosphate, and 10 mM sodium fluoride) and incubation at 37° C. for 20 minutes. The incubated solution was chilled by the addition of ice-cold Wash Buffer (final concentration 1×PBS and either 4% bovine serum albumin (BSA) or 4% heat-inactivated fetal bovine serum (FBS), supplemented with 1×PIC), and the samples were centrifuged at 300 g for 6 minutes at 4° C.). If the lysis was incomplete, samples were retreated with 0.1% Triton X-100 at 37° C. for 10 to 20 minutes. After removal of the supernatant, cells were washed twice in ice-cold Wash Buffer supplemented with 1×PIC and permeabilized by the addition of pre-chilled 80% methanol while simultaneously vortexing the tube and incubated on ice for 10 minutes. Methanol was removed by centrifugation, the pellet was washed with ice-cold 1×PBS, and non-specific binding was blocked by the addition of ice-cold Wash Buffer supplemented with 1×PIC and incubation at 4° C. for a minimum of 30 minutes.
(§2) To stain cells with fluorescent conjugated monoclonal antibodies, the incubated solution was centrifuged to remove the supernatant and the pellet was incubated for 60 minutes at 4° C. with an antibody staining solution including 0.25 μg to 0.50 μg of pS6-Pacific Blue, pERK-ALEXA 488, pSTAT5-ALEXA 647, CD34-PE, CD45-PerCP, and CD117-PC7. Samples were washed three times with ice-cold Wash Buffer supplemented with 1×PIC, resuspended in 0.5 mL ice-cold Wash Buffer supplemented with 1×PIC including 0.5 μg/mL DAPI, and analyzed by flow cytometryusing a BD LSR II Flow Cytometer, equipped with a High Throughput Sampler (HTS).
(§3) First, doublets, aggregates, and debris were excluded by gating on single cell events in the SSC-Area versus SSC-Height histogram. Then, in events passing through this gate, debris near the origin of the FSC-Area versus SSC-Area plot (gray in FIG. 4A) was excluded by drawing a gate around an area encompassing, primarily, lymphocytes, monocytes, and granulocytes (LMG, black in FIG. 4A). Next, in cells passing through the LMG gate, the blast region (circle in FIG. 4B) was identified in the CD45 versus SSC-Area histogram (FIG. 4B). From this blast population, CD34+, CD117+ cells were identified in the CD34 versus CD117 plot (boxed area in FIG. 4C). Finally, these cells were further analyzed for cytokine-mediated increases in phosphorylation by constructing gates in the single parameter histograms (for positively and negatively stained events, i.e., for the phosphorylated and non-phosphorylated forms, respectively, of each protein) for pS6 (FIGS. 4D and 4G), pERK (FIGS. 4E and 4H), and pSTAT5 (FIGS. 4F and 4I). The single parameter histograms show the responses typically obtained for SCF-stimulated pS6 (4 min; FIG. 4D), pERK (2 min; FIG. 4E), and pSTAT5 (2 min; FIG. 4F) as well as for IL-3 stimulated pS6 (FIG. 4G), pERK (FIG. 4H), and pSTAT5 (FIG. 41) at 8 min. […]

[2] = test system: pSTAT5
Protocol: as §1, §2, §3

[3] = test system: pERK
Protocol: as §1, §2, §3

B1: Interleukin- 3 (protein, UniProt P08700 20-152, looked up)
Interleukin-3: APMTQTTPLKTSWVNCSNMIDEIITHLKQPPLPLLDFNNLNGEDQDILMENNLRRPNLEAFNRAVKSLQNASAIESILKNLLPCLPLATAAPTRHPIHIKDGDWNEFRRKLTFYLKTLENAQAQQTTLSLAIF
notes: colony-stimulating cytokine
pS6 Amp (peak amplitude of fold stimulation) [1]: 1 | pS6 RI (response interval) [1]: 20 min | pSTAT5 Amp (peak amplitude of fold stimulation) [2]: 150 | pSTAT5 RI (response interval) [2]: >60 min | pERK Amp (peak amplitude of fold stimulation) [3]: 5 | pERK RI (response interval) [3]: 10 min

From US20130210034A1, “COMPLEX PHOSPHOPROTEIN ACTIVATION PROFILES” (BECKMAN COULTER, INC., priority 2005, published 2013)
